Results: patent publication US11980774B2, “Illumination devices and related methods for phototherapeutic light treatments in the presence of vitamins” (priority 2021, dated 2024)

Test system: influenza B
Conditions: 1 μM and 10 μM riboflavin; 425 nm light 15 J/cm^2 and 30 J/cm^2; FIG. 6F

## Cc1cc2nc3c(=O)[nH]c(=O)nc-3n(C[C@H](O)[C@H](O)[C@H](O)CO)c2cc1C [riboflavin]
  reductions in viral load of influenza B: notable reductions
